Source: patent US20120094923A1, “METHODS AND MATERIALS FOR ASSESSING PROSTATE CANCER RECURRENCE AND REDUCING MESOTRYPSIN ACTIVITY” (priority 2010, published 2012)

Biological target: T1, mesotrypsin (Homo sapiens, UniProt P35030)
T1 construct: made in house; host or cells: E. coli
T1 sequence (P35030 81-304 limits assumed): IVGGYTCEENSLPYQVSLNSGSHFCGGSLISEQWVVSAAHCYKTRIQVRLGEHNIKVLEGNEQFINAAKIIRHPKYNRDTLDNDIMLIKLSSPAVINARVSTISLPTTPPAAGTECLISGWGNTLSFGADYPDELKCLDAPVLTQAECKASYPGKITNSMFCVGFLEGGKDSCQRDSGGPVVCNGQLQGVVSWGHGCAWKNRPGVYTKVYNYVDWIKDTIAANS
Experiment: Competitive inhibition of mesotrypsin (cleavage of chromogenic substrate Z-GPR-pNA)
Format: biochemical

| Structure (SMILES) | Ki (Ki (M)) [M] | Ki (Ki ± SD (M)) [M] | Ki (Ki toward mesotrypsin) [M] |
| --- | --- | --- | --- |
| CC[C@H](C)[C@H](NC(=O)[C@H](C)NC(=O)[C@H](CO)NC(=O)CNC(=O)[C@@H]1CSSC[C@H](NC(=O)[C@@H](NC(=O)[C@@H](N)CCC(=O)O)C(C)C)C(=O)N[C@@H](CO)C(=O)N[C@@H](CCC(=O)O)C(=O)N[C@@H](CCC(N)=O)C(=O)N[C@@H](C)C(=O)N[C@@H](CCC(=O)O)C(=O)N[C@@H]([C@@H](C)O)C(=O)NCC(=O)N2CCC[C@H]2C(=O)N[C@H]2CSSC[C@@H]3NC(=O)CNC(=O)CNC(=O)[C@H](Cc4ccc(O)cc4)NC(=O)[C@H](Cc4ccccc4)NC(=O)[C@H](Cc4ccccc4)NC(=O)[C@@H]4CCCN4C(=O)[C@H](C)NC(=O)[C@H](CSSC[C@H](NC(=O)[C@H](Cc4ccc(O)cc4)NC(=O)[C@H](CCC(=O)O)NC(=O)[C@H](CCC(=O)O)NC(=O)[C@H]([C@@H](C)O)NC(=O)[C@H](CC(=O)O)NC(=O)CNC(=O)[C@H](CC(N)=O)NC(=O)[C@H](CC(N)=O)NC(=O)[C@H](CCCNC(=N)N)NC(=O)[C@H](CC(N)=O)NC(=O)CNC(=O)CNC3=O)C(=O)N[C@@H](CCSC)C(=O)N[C@@H](C)C(=O)N[C@@H](C(C)C)C(=O)N1)NC(=O)[C@H](CCCCN)NC(=O)CNC(=O)[C@H](CCC(=O)O)NC(=O)[C@H]([C@@H](C)O)NC(=O)[C@H](C(C)C)NC(=O)[C@H](CC(=O)O)NC(=O)[C@H](Cc1ccccc1)NC(=O)[C@H](Cc1ccc(O)cc1)NC(=O)[C@H](Cc1c[nH]c3ccccc13)NC(=O)[C@H](CCCNC(=N)N)NC(=O)[C@H](CO)NC(=O)[C@H]([C@@H](C)CC)NC(=O)[C@H](C)NC(=O)[C@H](C)NC(=O)[C@H](CCCNC(=N)N)NC2=O)C(=O)O [APPI-M17A] | 1.71e-08 |  |  |
| CC[C@H](C)[C@H](NC(=O)[C@H](C)NC(=O)[C@H](CO)NC(=O)CNC(=O)[C@@H]1CSSC[C@H](NC(=O)[C@@H](NC(=O)[C@@H](N)CCC(=O)O)C(C)C)C(=O)N[C@@H](CO)C(=O)N[C@@H](CCC(=O)O)C(=O)N[C@@H](CCC(N)=O)C(=O)N[C@@H](C)C(=O)N[C@@H](CCC(=O)O)C(=O)N[C@@H]([C@@H](C)O)C(=O)NCC(=O)N2CCC[C@H]2C(=O)N[C@H]2CSSC[C@@H]3NC(=O)CNC(=O)CNC(=O)[C@H](Cc4ccc(O)cc4)NC(=O)[C@H](Cc4ccccc4)NC(=O)[C@H](Cc4ccccc4)NC(=O)[C@@H]4CCCN4C(=O)[C@H](C)NC(=O)[C@H](CSSC[C@H](NC(=O)[C@H](Cc4ccc(O)cc4)NC(=O)[C@H](CCC(=O)O)NC(=O)[C@H](CCC(=O)O)NC(=O)[C@H]([C@@H](C)O)NC(=O)[C@H](CC(=O)O)NC(=O)CNC(=O)[C@H](CC(N)=O)NC(=O)[C@H](CC(N)=O)NC(=O)[C@H](CCCNC(=N)N)NC(=O)[C@H](CC(N)=O)NC(=O)CNC(=O)CNC3=O)C(=O)N[C@@H](CCSC)C(=O)N[C@@H](C)C(=O)N[C@@H](C(C)C)C(=O)N1)NC(=O)[C@H](CCCCN)NC(=O)CNC(=O)[C@H](CCC(=O)O)NC(=O)[C@H]([C@@H](C)O)NC(=O)[C@H](C(C)C)NC(=O)[C@H](CC(=O)O)NC(=O)[C@H](Cc1ccccc1)NC(=O)[C@H](Cc1ccc(O)cc1)NC(=O)[C@H](Cc1c[nH]c3ccccc13)NC(=O)[C@H](CCCNC(=N)N)NC(=O)[C@H](CO)NC(=O)[C@H]([C@@H](C)CC)NC(=O)[C@H](CC(=O)O)NC(=O)[C@H](C)NC(=O)[C@H](CCCNC(=N)N)NC2=O)C(=O)O [APPI-M17D] |  | 3.46e-07 |  |
| CC[C@H](C)[C@H](NC(=O)[C@H](C)NC(=O)[C@H](CO)NC(=O)CNC(=O)[C@@H]1CSSC[C@H](NC(=O)[C@@H](NC(=O)[C@@H](N)CCC(=O)O)C(C)C)C(=O)N[C@@H](CO)C(=O)N[C@@H](CCC(=O)O)C(=O)N[C@@H](CCC(N)=O)C(=O)N[C@@H](C)C(=O)N[C@@H](CCC(=O)O)C(=O)N[C@@H]([C@@H](C)O)C(=O)NCC(=O)N2CCC[C@H]2C(=O)N[C@H]2CSSC[C@@H]3NC(=O)CNC(=O)CNC(=O)[C@H](Cc4ccc(O)cc4)NC(=O)[C@H](Cc4ccccc4)NC(=O)[C@H](Cc4ccccc4)NC(=O)[C@@H]4CCCN4C(=O)[C@H](C)NC(=O)[C@H](CSSC[C@H](NC(=O)[C@H](Cc4ccc(O)cc4)NC(=O)[C@H](CCC(=O)O)NC(=O)[C@H](CCC(=O)O)NC(=O)[C@H]([C@@H](C)O)NC(=O)[C@H](CC(=O)O)NC(=O)CNC(=O)[C@H](CC(N)=O)NC(=O)[C@H](CC(N)=O)NC(=O)[C@H](CCCNC(=N)N)NC(=O)[C@H](CC(N)=O)NC(=O)CNC(=O)CNC3=O)C(=O)N[C@@H](CCSC)C(=O)N[C@@H](C)C(=O)N[C@@H](C(C)C)C(=O)N1)NC(=O)[C@H](CCCCN)NC(=O)CNC(=O)[C@H](CCC(=O)O)NC(=O)[C@H]([C@@H](C)O)NC(=O)[C@H](C(C)C)NC(=O)[C@H](CC(=O)O)NC(=O)[C@H](Cc1ccccc1)NC(=O)[C@H](Cc1ccc(O)cc1)NC(=O)[C@H](Cc1c[nH]c3ccccc13)NC(=O)[C@H](CCCNC(=N)N)NC(=O)[C@H](CO)NC(=O)[C@H]([C@@H](C)CC)NC(=O)[C@H](CCC(=O)O)NC(=O)[C@H](C)NC(=O)[C@H](CCCNC(=N)N)NC2=O)C(=O)O [APPI-M17E] | 3.08e-07 |  |  |
| CC[C@H](C)[C@H](NC(=O)[C@H](C)NC(=O)[C@H](CO)NC(=O)CNC(=O)[C@@H]1CSSC[C@H](NC(=O)[C@@H](NC(=O)[C@@H](N)CCC(=O)O)C(C)C)C(=O)N[C@@H](CO)C(=O)N[C@@H](CCC(=O)O)C(=O)N[C@@H](CCC(N)=O)C(=O)N[C@@H](C)C(=O)N[C@@H](CCC(=O)O)C(=O)N[C@@H]([C@@H](C)O)C(=O)NCC(=O)N2CCC[C@H]2C(=O)N[C@H]2CSSC[C@@H]3NC(=O)CNC(=O)CNC(=O)[C@H](Cc4ccc(O)cc4)NC(=O)[C@H](Cc4ccccc4)NC(=O)[C@H](Cc4ccccc4)NC(=O)[C@@H]4CCCN4C(=O)[C@H](C)NC(=O)[C@H](CSSC[C@H](NC(=O)[C@H](Cc4ccc(O)cc4)NC(=O)[C@H](CCC(=O)O)NC(=O)[C@H](CCC(=O)O)NC(=O)[C@H]([C@@H](C)O)NC(=O)[C@H](CC(=O)O)NC(=O)CNC(=O)[C@H](CC(N)=O)NC(=O)[C@H](CC(N)=O)NC(=O)[C@H](CCCNC(=N)N)NC(=O)[C@H](CC(N)=O)NC(=O)CNC(=O)CNC3=O)C(=O)N[C@@H](CCSC)C(=O)N[C@@H](C)C(=O)N[C@@H](C(C)C)C(=O)N1)NC(=O)[C@H](CCCCN)NC(=O)CNC(=O)[C@H](CCC(=O)O)NC(=O)[C@H]([C@@H](C)O)NC(=O)[C@H](C(C)C)NC(=O)[C@H](CC(=O)O)NC(=O)[C@H](Cc1ccccc1)NC(=O)[C@H](Cc1ccc(O)cc1)NC(=O)[C@H](Cc1c[nH]c3ccccc13)NC(=O)[C@H](CCCNC(=N)N)NC(=O)[C@H](CO)NC(=O)[C@H]([C@@H](C)CC)NC(=O)[C@H](Cc1ccccc1)NC(=O)[C@H](C)NC(=O)[C@H](CCCNC(=N)N)NC2=O)C(=O)O [APPI-M17F] |  | 1.26e-07 |  |
| CC[C@H](C)[C@H](NC(=O)[C@H](C)NC(=O)[C@H](CO)NC(=O)CNC(=O)[C@@H]1CSSC[C@H](NC(=O)[C@@H](NC(=O)[C@@H](N)CCC(=O)O)C(C)C)C(=O)N[C@@H](CO)C(=O)N[C@@H](CCC(=O)O)C(=O)N[C@@H](CCC(N)=O)C(=O)N[C@@H](C)C(=O)N[C@@H](CCC(=O)O)C(=O)N[C@@H]([C@@H](C)O)C(=O)NCC(=O)N2CCC[C@H]2C(=O)N[C@H]2CSSC[C@@H]3NC(=O)CNC(=O)CNC(=O)[C@H](Cc4ccc(O)cc4)NC(=O)[C@H](Cc4ccccc4)NC(=O)[C@H](Cc4ccccc4)NC(=O)[C@@H]4CCCN4C(=O)[C@H](C)NC(=O)[C@H](CSSC[C@H](NC(=O)[C@H](Cc4ccc(O)cc4)NC(=O)[C@H](CCC(=O)O)NC(=O)[C@H](CCC(=O)O)NC(=O)[C@H]([C@@H](C)O)NC(=O)[C@H](CC(=O)O)NC(=O)CNC(=O)[C@H](CC(N)=O)NC(=O)[C@H](CC(N)=O)NC(=O)[C@H](CCCNC(=N)N)NC(=O)[C@H](CC(N)=O)NC(=O)CNC(=O)CNC3=O)C(=O)N[C@@H](CCSC)C(=O)N[C@@H](C)C(=O)N[C@@H](C(C)C)C(=O)N1)NC(=O)[C@H](CCCCN)NC(=O)CNC(=O)[C@H](CCC(=O)O)NC(=O)[C@H]([C@@H](C)O)NC(=O)[C@H](C(C)C)NC(=O)[C@H](CC(=O)O)NC(=O)[C@H](Cc1ccccc1)NC(=O)[C@H](Cc1ccc(O)cc1)NC(=O)[C@H](Cc1c[nH]c3ccccc13)NC(=O)[C@H](CCCNC(=N)N)NC(=O)[C@H](CO)NC(=O)[C@H]([C@@H](C)CC)NC(=O)CNC(=O)[C@H](C)NC(=O)[C@H](CCCNC(=N)N)NC2=O)C(=O)O [APPI-M17G] |  | 4.71e-09 | 4.7e-09 |
| CC[C@H](C)[C@H](NC(=O)[C@H](C)NC(=O)[C@H](CO)NC(=O)CNC(=O)[C@@H]1CSSC[C@H](NC(=O)[C@@H](NC(=O)[C@@H](N)CCC(=O)O)C(C)C)C(=O)N[C@@H](CO)C(=O)N[C@@H](CCC(=O)O)C(=O)N[C@@H](CCC(N)=O)C(=O)N[C@@H](C)C(=O)N[C@@H](CCC(=O)O)C(=O)N[C@@H]([C@@H](C)O)C(=O)NCC(=O)N2CCC[C@H]2C(=O)N[C@H]2CSSC[C@@H]3NC(=O)CNC(=O)CNC(=O)[C@H](Cc4ccc(O)cc4)NC(=O)[C@H](Cc4ccccc4)NC(=O)[C@H](Cc4ccccc4)NC(=O)[C@@H]4CCCN4C(=O)[C@H](C)NC(=O)[C@H](CSSC[C@H](NC(=O)[C@H](Cc4ccc(O)cc4)NC(=O)[C@H](CCC(=O)O)NC(=O)[C@H](CCC(=O)O)NC(=O)[C@H]([C@@H](C)O)NC(=O)[C@H](CC(=O)O)NC(=O)CNC(=O)[C@H](CC(N)=O)NC(=O)[C@H](CC(N)=O)NC(=O)[C@H](CCCNC(=N)N)NC(=O)[C@H](CC(N)=O)NC(=O)CNC(=O)CNC3=O)C(=O)N[C@@H](CCSC)C(=O)N[C@@H](C)C(=O)N[C@@H](C(C)C)C(=O)N1)NC(=O)[C@H](CCCCN)NC(=O)CNC(=O)[C@H](CCC(=O)O)NC(=O)[C@H]([C@@H](C)O)NC(=O)[C@H](C(C)C)NC(=O)[C@H](CC(=O)O)NC(=O)[C@H](Cc1ccccc1)NC(=O)[C@H](Cc1ccc(O)cc1)NC(=O)[C@H](Cc1c[nH]c3ccccc13)NC(=O)[C@H](CCCNC(=N)N)NC(=O)[C@H](CO)NC(=O)[C@H]([C@@H](C)CC)NC(=O)[C@H](CCCNC(=N)N)NC(=O)[C@H](C)NC(=O)[C@H](CCCNC(=N)N)NC2=O)C(=O)O [APPI-M17R] | 9.2e-07 |  |  |
